Membrane permeability of cyclic peptides

Data: CycPeptMPDB; original report Naylor et al. 2018, doi:10.1021/acs.jmedchem.8b01259.

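Conditions beyond the assay type are not listed; see the original paper. The list need not hold all peptides of the study. Entries at the database's floor value (log10 P of -10) are not listed.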

PAMPA is the parallel artificial membrane permeability assay, which has no cells and reads passive diffusion. RRCK is a low-efflux MDCK cell line. P is given in units of 10^-6 cm/s (from log10 values with two decimals); larger means faster passage. "n/a" marks a cell with nothing listed here.

compound	PAMPA (10^-6 cm/s)	RRCK (10^-6 cm/s)
CC(C)C[C@@H]1NC(=O)[C@H](C)N(C)C(=O)[C@H]2CCCN2C(=O)[C@H](CC(C)C)NC(=O)[C@H](C)N(C)C(=O)[C@@H](C)N(C)C1=O	1.1	4.9
CC(C)C[C@@H]1NC(=O)[C@H](Cc2ccccc2)N(C)C(=O)[C@H]2CCCN2C(=O)[C@H](CC(C)C)NC(=O)[C@H](C)N(C)C(=O)[C@@H](CC(C)C)N(C)C1=O	6.9	23
CC(C)C[C@@H]1NC(=O)[C@H](Cc2ccc(O)cc2)N(C)C(=O)[C@H]2CCCN2C(=O)[C@H](CC(C)C)NC(=O)[C@H](CC(C)C)N(C)C(=O)[C@@H](C)N(C)C1=O	5.5	12
CC(C)C[C@@H]1NC(=O)[C@H](Cc2ccccc2)NC(=O)[C@H]2CCCN2C(=O)[C@H](CC(C)C)NC(=O)[C@H](CC2CCCCC2)NC(=O)[C@@H](CC(C)C)NC1=O	8.7	9.5
CC(C)C[C@@H]1NC(=O)[C@H](C)N(C)C(=O)[C@H]2CCCN2C(=O)[C@H](CC(C)C)NC(=O)[C@H](C)N(C)C(=O)[C@@H](CC(C)C)N(C)C1=O	8.9	18
CCC[C@@H]1C(=O)N(C)[C@@H](CC2CCCCC2)C(=O)N[C@@H](CC2CCCCC2)C(=O)N2CCC[C@@H]2C(=O)N(C)[C@@H](Cc2ccccc2)C(=O)N[C@@H](CC(C)C)C(=O)N1C	n/a	0.32
CC[C@@H]1C(=O)N(C)[C@@H](CC(C)C)C(=O)N[C@@H](CC(C)C)C(=O)N2CCC[C@@H]2C(=O)N(C)[C@@H](Cc2ccccc2)C(=O)N[C@@H](CC(C)C)C(=O)N1C	4.4	31
CCC[C@@H]1C(=O)N(C)[C@@H](C)C(=O)N[C@@H](CC(C)C)C(=O)N2CCC[C@@H]2C(=O)N(C)[C@@H](C)C(=O)N[C@@H](CC(C)C)C(=O)N1C	6.2	14
CC[C@@H]1C(=O)N(C)[C@@H](CC(C)C)C(=O)N[C@@H](CC(C)C)C(=O)N2CCC[C@@H]2C(=O)N(C)[C@@H](CC2CCCCC2)C(=O)N[C@@H](CC(C)C)C(=O)N1C	0.79	13
CC[C@@H]1C(=O)N(C)[C@@H](CC2CCCCC2)C(=O)N[C@@H](CC2CCCCC2)C(=O)N2CCC[C@@H]2C(=O)N(C)[C@@H](Cc2ccc(O)cc2)C(=O)N[C@@H](CC(C)C)C(=O)N1C	0.21	1.3
CC(C)C[C@@H]1NC(=O)[C@H](Cc2ccccc2)NC(=O)[C@H]2CCCN2C(=O)[C@H](CC(C)C)NC(=O)[C@H](CC(C)C)NC(=O)[C@@H](CC(C)C)NC1=O	10	8.7
CC(C)C[C@@H]1NC(=O)[C@H](CC(C)C)N(C)C(=O)[C@H]2CCCN2C(=O)[C@H](CC(C)C)NC(=O)[C@H](Cc2ccccc2)N(C)C(=O)[C@H]2CCCN2C1=O	10	27
CC(C)C[C@@H]1NC(=O)[C@H](Cc2ccccc2)N(C)C(=O)[C@H]2CCCN2C(=O)[C@H](CC(C)C)NC(=O)[C@H](CC(C)C)N(C)C(=O)[C@@H](CC(C)C)N(C)C1=O	0.69	19
CC(C)C[C@@H]1NC(=O)[C@H](Cc2ccccc2)N(C)C(=O)[C@H]2CCCN2C(=O)[C@H](CC(C)C)NC(=O)[C@H](CC2CCCCC2)N(C)C(=O)[C@@H](CC(C)C)N(C)C1=O	0.028	1.6
CC(C)C[C@@H]1NC(=O)[C@H](Cc2ccccc2)NC(=O)[C@H]2CCCN2C(=O)[C@H](CC(C)C)NC(=O)[C@H](C)NC(=O)[C@@H](C)NC1=O	0.72	2.6
CC(C)C[C@@H]1NC(=O)[C@H](Cc2ccccc2)N(C)C(=O)[C@H]2CCCN2C(=O)[C@H](CC2CCCCC2)NC(=O)[C@H](CC2CCCCC2)N(C)C(=O)[C@@H](CC(C)C)N(C)C1=O	0.014	0.11
CCC[C@H]1NC(=O)[C@H](CC(C)C)NC(=O)[C@H](Cc2ccc(O)cc2)NC(=O)[C@H]2CCCN2C(=O)[C@H](CC2CCCCC2)NC(=O)[C@H](CC2CCCCC2)NC1=O	6.6	1.4

Extract of 2 entries:

| compound | PAMPA (10^-6 cm/s) | RRCK (10^-6 cm/s) |
|---|---|---|
| CC(C)C[C@@H]1NC(=O)[C@H](C)N(C)C(=O)[C@H]2CCCN2C(=O)[C@H](CC(C)C)NC(=O)[C@H](C)N(C)C(=O)[C@@H](C)N(C)C1=O | 1.1 | 4.9 |
| CC(C)C[C@@H]1NC(=O)[C@H](Cc2ccc(O)cc2)N(C)C(=O)[C@H]2CCCN2C(=O)[C@H](CC(C)C)NC(=O)[C@H](CC(C)C)N(C)C(=O)[C@@H](C)N(C)C1=O | 5.5 | 12 |